Experimental data published in publication PMC5942844, “Identification and characterization of the Fasciola hepatica sodium- and chloride-dependent taurine transporter” (PLoS Neglected Tropical Diseases, 2018).

Biological target: T1, F. hepatica taurine transporter (FhTauT) (Fasciola hepatica, UniProt A0A2R4LGM2)
T1 sequence (A0A2R4LGM2 1-647): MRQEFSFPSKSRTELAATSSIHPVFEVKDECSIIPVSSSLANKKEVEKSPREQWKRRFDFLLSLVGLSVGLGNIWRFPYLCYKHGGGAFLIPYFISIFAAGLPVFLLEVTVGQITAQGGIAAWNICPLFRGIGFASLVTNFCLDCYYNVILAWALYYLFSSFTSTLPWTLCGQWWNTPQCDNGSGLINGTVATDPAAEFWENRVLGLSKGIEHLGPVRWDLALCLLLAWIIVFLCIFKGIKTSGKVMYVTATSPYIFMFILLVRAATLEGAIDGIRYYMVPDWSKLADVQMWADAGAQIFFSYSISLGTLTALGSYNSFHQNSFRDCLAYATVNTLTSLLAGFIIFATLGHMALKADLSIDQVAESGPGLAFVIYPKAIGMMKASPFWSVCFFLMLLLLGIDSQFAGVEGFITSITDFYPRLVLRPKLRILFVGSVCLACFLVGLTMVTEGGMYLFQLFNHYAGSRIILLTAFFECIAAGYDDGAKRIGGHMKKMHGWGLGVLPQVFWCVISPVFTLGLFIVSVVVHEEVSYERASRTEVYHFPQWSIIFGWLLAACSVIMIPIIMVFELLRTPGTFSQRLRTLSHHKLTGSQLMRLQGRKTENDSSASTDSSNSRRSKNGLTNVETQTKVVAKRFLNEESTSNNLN
Conditions: inhibitors of GABA uptake or GABA degradation
Description: Human embryonic kidney-293 (HEK293 (ATCC CRL-1573, LGC standards Wesel, Germany)) cells, were grown in Dulbecco`s modified Eagle medium (DMEM) supplemented with 10% fetal bovine serum (FCS Nuaille, France), 100 units/ml penicillin and 100 μg/ml streptomycin at 37°C and with 5% CO2 in a humidified incubator. Cells were transfected with plasmids encoding fluorescently tagged or untagged versions of F. hepatica (FhTauT) and H. sapiens (HsTauT) taurine transporter using Jet Prime transfection reagent (Polyplus-transfection, France). To generate monoclonal cell lines stably expressing the transporters, transfected cells were subjected to and selected with the concentration of 0.2 mg/ml geneticin (G418) for 10 days. Surviving cells forming colonies were separated and analyzed for membrane localization of transporters and transport of taurine. After the selection process cells were kept at 50 μg/ml G418 to keep the selection pressure.
For saturation uptake experiments, cells were plated the day before the experiment at a density of about 50,000 cells/well onto poly (D-lysine)-coated 48-well culture plates (CytoOne, USA). […] Non-specific uptake was determined by incubating cells in the presence of the blocker β-alanine (100 mM) before and during the experiment and subtracted from uptake values. […]

O=C(O)C1CCCNC1 (stereo not shown) [nipecotic acid]
inhibition of the transporter (taurine uptake): failed to inhibit
